Marks after values point to notes of the source that are not given here.
Tests used:
Format in all cases: in vitro ADME
CYP3A4 = CYP3A4 (Homo sapiens, UniProt P08684); experiment: Kinetics of cabozantinib oxidation by recombinant CYP3A4 (Supersomes); parameters: purchased Corning (Corning, NY, USA); host or cells: insect cells (baculovirus); conditions: formation of the metabolite from cabozantinib by CYP3A4 without cyt b5
Description: (§1) Cabozantinib was from MedChemExpress (Monmouth Junction, NJ, USA). Standard of cabozantinib N-oxide was purchased from Toronto Research Chemicals (Toronto, Canada). Ketoconazole, NADPH and other chemicals were all purchased from Merck (Darnstadt, Germany). The purity of all chemicals met the standards of American Chemical Society, unless otherwise noted. Male human hepatic microsomes (pooled sample) (sample LOT: 3043885) were from Gentest Corp. (Woburn, MA, USA). Microsomes from livers of twelve human donors were obtained from Gentest Corp. (Woburn, MA, USA) (Lot. no. HG43-1, HG103, HG74, HG93, HG24, HG27, HG23, HG32, HK31, HK34, HG03 and HG42). Each human microsomal sample was characterized for CYP, FMO, total protein contents and specific CYP activities by Gentest Corp. and reanalyzed by us by assays described in the protocols of Gentest Corp. Our data were similar to those reported by Gentest Corp. (Table 1). Human recombinant enzymes were used in the forms of Supersomes™ and obtained from Corning (Corning, NY, USA). In Supersomes™, microsomal fractions were isolated from insect cells that were transfected with baculovirus constructs containing cDNA of human CYP enzymes (CYP1A1/2, 1B1, 2A6, 2B6, 2C8/9/18/19/, 2D6, 2E1, 3A4). The Supersomes™ also express NADPH:CYP oxidoreductase (POR). However, because they are microsomes (particles of broken endoplasmic reticulum), other enzymes (proteins) of the endoplasmic reticulum membrane (like NADH:cytochrome b5 reductase and cytochrome b5) are also expressed at basal levels in these Supersomes™. We also utilized Supersomes™, which overexpressed cytochrome b5, in a molar ratio of CYP to cytochrome b5 of 1 to 5. In Supersomes™, where cytochrome b5 was not overexpressed (see above), pure cytochrome b5 was added to reach a molar ratio of CYP to cytochrome b5 of 1 to 5. Reconstitution of Supersomes™ with purified cytochrome b5 was performed as described previously. Human recombinant FMOs and AO were also used in the forms of Supersomes™ (Gentest Corp., Woburn, MA, USA). […]

By UniProt entry, the sequences of proteins in these tests, tags left out.
UniProt P08684, whole entry: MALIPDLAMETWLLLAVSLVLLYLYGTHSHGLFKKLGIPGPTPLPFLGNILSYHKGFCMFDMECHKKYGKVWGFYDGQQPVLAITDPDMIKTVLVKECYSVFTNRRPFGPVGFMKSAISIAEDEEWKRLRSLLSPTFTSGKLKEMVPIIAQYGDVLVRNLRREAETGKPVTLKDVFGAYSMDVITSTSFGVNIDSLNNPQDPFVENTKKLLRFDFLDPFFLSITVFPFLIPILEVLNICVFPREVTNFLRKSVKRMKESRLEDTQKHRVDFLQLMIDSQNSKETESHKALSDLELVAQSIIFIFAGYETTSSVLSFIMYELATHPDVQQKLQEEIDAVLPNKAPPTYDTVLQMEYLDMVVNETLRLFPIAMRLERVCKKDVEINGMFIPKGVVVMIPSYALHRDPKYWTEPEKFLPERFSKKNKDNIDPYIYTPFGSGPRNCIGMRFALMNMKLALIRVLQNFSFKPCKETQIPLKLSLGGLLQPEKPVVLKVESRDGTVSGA

CYP3A4 + cyt b5 = molecular target: T1, CYP3A4 + cyt b5 (Homo sapiens, UniProt P08684); experiment: Cabozantinib oxidation by recombinant CYP3A4 in the presence of cyt b5 (Supersomes); conditions: formation of the metabolite from cabozantinib by CYP3A4 + cyt b5
T1 construct: purchased Corning (Corning, NY, USA); host or cells: insect cells (baculovirus)
Description: as §1, with “(POR).” for “(POR). However, because they are microsomes (particles of broken endoplasmic reticulum), other enzymes (proteins) of the endoplasmic reticulum membrane (like NADH:cytochrome b5 reductase and cytochrome b5) are also expressed at basal levels in these Supersomes™. We also utilized Supersomes™, which overexpressed cytochrome b5, in a molar ratio of CYP to cytochrome b5 of 1 to 5. In Supersomes™, where cytochrome b5 was not overexpressed (see above), pure cytochrome b5 was added to reach a molar ratio of CYP to cytochrome b5 of 1 to 5. Reconstitution of Supersomes™ with purified cytochrome b5 was performed as described previously. Human recombinant FMOs and AO were also used in the forms of Supersomes™ (Gentest Corp., Woburn, MA, USA).”

human liver microsomes [1] = experiment: Oxidation of cabozantinib by hepatic microsomes of individual human donors (HPLC of metabolites); conditions: 50 µM cabozantinib, 20 min
Description: Cabozantinib was from MedChemExpress (Monmouth Junction, NJ, USA). Standard of cabozantinib N-oxide was purchased from Toronto Research Chemicals (Toronto, Canada). Ketoconazole, NADPH and other chemicals were all purchased from Merck (Darnstadt, Germany). The purity of all chemicals met the standards of American Chemical Society, unless otherwise noted. Male human hepatic microsomes (pooled sample) (sample LOT: 3043885) were from Gentest Corp. (Woburn, MA, USA). Microsomes from livers of twelve human donors were obtained from Gentest Corp. (Woburn, MA, USA) (Lot. no. HG43-1, HG103, HG74, HG93, HG24, HG27, HG23, HG32, HK31, HK34, HG03 and HG42). Each human microsomal sample was characterized for CYP, FMO, total protein contents and specific CYP activities by Gentest Corp. and reanalyzed by us by assays described in the protocols of Gentest Corp. Our data were similar to those reported by Gentest Corp. (Table 1). Human recombinant enzymes were used in the forms of Supersomes™ and obtained from Corning (Corning, NY, USA). In Supersomes™, microsomal fractions were isolated from insect cells that were transfected with baculovirus constructs containing cDNA of human CYP enzymes (CYP1A1/2, 1B1, 2A6, 2B6, 2C8/9/18/19/, 2D6, 2E1, 3A4). The Supersomes™ also express NADPH:CYP oxidoreductase (POR). However, because they are microsomes (particles of broken endoplasmic reticulum), other enzymes (proteins) of the endoplasmic reticulum membrane (like NADH:cytochrome b5 reductase and cytochrome b5) are also expressed at basal levels in these Supersomes™. We also utilized Supersomes™, which overexpressed cytochrome b5, in a molar ratio of CYP to cytochrome b5 of 1 to 5. In Supersomes™, where cytochrome b5 was not overexpressed (see above), pure cytochrome b5 was added to reach a molar ratio of CYP to cytochrome b5 of 1 to 5. Reconstitution of Supersomes™ with purified cytochrome b5 was performed as described previously. Human recombinant FMOs and AO were also used in the forms of Supersomes™ (Gentest Corp., Woburn, MA, USA). These microsomal fractions were isolated from insect cells that are transfected with baculovirus constructs containing cDNA of human FMO1, FMO3, FMO5 or AO enzymes.
The reaction was initiated by adding NADPH. In control incubations, either microsomes or CYP (FMO, AO) or NADPH were omitted. […] The reaction was stopped by extraction with ethyl acetate (2 × 1 mL). […] Cabozantinib metabolites separated by HPLC were characterized by mass spectroscopy (see further details below).

human liver microsomes [2] = experiment: as above; conditions: 50 µM cabozantinib, 20 min; remark: listed apart in the source
human liver microsomes [3] = experiment: Correlation of CYP- and FMO-linked catalytic activities with amounts of cabozantinib metabolites formed in microsomes; conditions: twelve human microsomal samples
Description: Data are expressed as mean ± SD. Data were analyzed using GraphPad Prism 7 (San Diego, CA, USA) using ANOVA with post-hoc Tukey HSD Test. All p-values are two-tailed and considered significant at the 0.05 level. […] Correlation coefficients (r) were based on a sample size of twelve for human microsomes. All p-values are two-tailed and considered significant at the 0.05 level.
To clarify these correlations, multivariate analysis was used to investigate the dependence of metabolite formation on these CYP activities. Activities of CYP2A6, -2B6 and -2C8 in each microsomal sample were combined in pairs with the activities of CYP3A4 to see if any combination of the activities led to an improvement in the correlation with CYP3A4.

CYPs in human liver = experiment: Contributions of CYP enzymes to formation of cabozantinib metabolites in human livers; conditions: calculated from velocities with cyt b5 and CYP expression levels in human liver

monohydroxy cabozantinib [M1]
K0.5 (CYP3A4): 8.98 ± 1.04 µM | VMax (CYP3A4): 1.50 ± 0.05 peak area/min/nmol CYP | Ki (CYP3A4; substrate inhibition): 947.87 ± 202.96 µM | K0.5 (CYP3A4 + cyt b5): 26.00 ± 2.92 µM | VMax (CYP3A4 + cyt b5): 3.60 ± 0.11 peak area/min/nmol CYP | Amounts of cabozantinib metabolites (human liver microsomes [1]; human liver microsomes sample HG03): 0.287 peak area/incubation time | Amounts of cabozantinib metabolites (human liver microsomes [1]; human liver microsomes sample HG24): 0.132 peak area/incubation time | Amounts of cabozantinib metabolites (human liver microsomes [1]; human liver microsomes sample HG32): 0.208 peak area/incubation time | Amounts of cabozantinib metabolites (human liver microsomes [1]; human liver microsomes sample HG42): 0.301 peak area/incubation time | Amounts of cabozantinib metabolites (human liver microsomes [1]; human liver microsomes sample HG43): 0.755 peak area/incubation time | Amounts of cabozantinib metabolites (human liver microsomes [1]; human liver microsomes sample HG74): 0.148 peak area/incubation time | Amounts of cabozantinib metabolites (human liver microsomes [1]; human liver microsomes sample HG93): 0.292 peak area/incubation time | Amounts of cabozantinib metabolites (human liver microsomes [1]; human liver microsomes sample HG103): 0.109 peak area/incubation time | Amounts of cabozantinib metabolites (human liver microsomes [1]; human liver microsomes sample HK31): 0.218 peak area/incubation time | Amounts of cabozantinib metabolites (human liver microsomes [1]; human liver microsomes sample HK34): 0.209 peak area/incubation time | Amounts of cabozantinib metabolites (human liver microsomes [2]; human liver microsomes sample HK23): 0.094 peak area/incubation time | Amounts of cabozantinib metabolites (human liver microsomes [2]; human liver microsomes sample HK27): 0.273 peak area/incubation time | Correlation coefficient (r) with CYP2C19 activity (human liver microsomes [3]; (S)-Mephenytoin-4′-hydroxylase): −0.119 | Correlation coefficient (r) with CYP2B6 activity (human liver microsomes [3]; (S)-Mephenytoin-N-demethylase): 0.886 *** | Correlation coefficient (r) with CYP2D6 activity (human liver microsomes [3]; Buferalol-1′-hydroxylase): 0.028 | Correlation coefficient (r) with CYP2E1 activity (human liver microsomes [3]; Chlorzoxazone-6-hydroxylase): −0.065 | Correlation coefficient (r) with CYP2A6 activity (human liver microsomes [3]; Coumarine-7-hydroxylase): 0.607 * | Correlation coefficient (r) with CYP2C9 activity (human liver microsomes [3]; Diclofenac-4′-hydroxylase): 0.142 | Correlation coefficient (r) with CYP4A11 activity (human liver microsomes [3]; Lauric acid-12-hydroxylase): 0.163 | Correlation coefficient (r) with FMO activity (human liver microsomes [3]; Methyl-p-tolyl sulfide oxidase): 0.137 | Correlation coefficient (r) with CYP2C8 activity (human liver microsomes [3]; Paclitaxel-6α-hydroxylase): 0.785 ** | Correlation coefficient (r) with CYP1A2 activity (human liver microsomes [3]; Phenacetin-O-deethylase): 0.104 | Correlation coefficient (r) with Total CYPs (human liver microsomes [3]; amount of metabolite formed vs total CYP content): 0.705 * | Contribution of CYPs other than CYP3A4 to formation of the metabolite in human liver (CYPs in human liver): less than 3%
